Test results from paper PMC12147714 (FEMS Microbiology Letters, 2025).
pIC50: −log10 of the molar value.

Chains of the proteins cited; added tags and fusions are not shown. Residues count along the entry.
UniProt Q9F663, 25-293 limits assumed: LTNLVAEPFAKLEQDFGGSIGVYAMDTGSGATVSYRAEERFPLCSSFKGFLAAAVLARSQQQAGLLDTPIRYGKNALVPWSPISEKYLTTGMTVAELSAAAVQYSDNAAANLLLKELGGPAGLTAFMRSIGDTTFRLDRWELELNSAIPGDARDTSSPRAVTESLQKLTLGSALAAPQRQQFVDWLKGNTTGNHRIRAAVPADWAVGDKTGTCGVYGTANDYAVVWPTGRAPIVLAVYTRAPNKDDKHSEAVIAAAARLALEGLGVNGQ

Biological target: KPC-2 (Klebsiella pneumoniae, UniProt Q9F663)
Experiment: IC50, inhibition of cephalothin hydrolysis by crude extract

## O=C(O)[C@@H](S)[C@@H](S)C(=O)O [DMSA, meso-dimercaptosuccinic acid]
100 μM cephalothin, pH 7.0
  pIC50: < 3.00
Data not shown
  pIC50: 2.16
